{"source": "patent US20040014187A1", "about": "“Bacterial carboxypeptidase cpg2 variants and their use in gene directed enzyme prodrug therapy” (priority 2000, published 2004)", "molecules": {"B1": {"name": "CPG2*(Q)3: cytosolic CPG2* bearing three asparagine to glutamine mutations (N222, N264, N272) (protein)", "chain": "ALAQKRDNVLFQAATDEQPAVIKTLEKLVNIETGTGDAEGIAAAGNFLEAELKNLGFTVTRSKSAGLVVGDNIVGKIKGRGGKNLLLMSHMDTVYLKGILAKAPFRVEGDKAYGPGIADDKGGNAVILHTLKLLKEYGVRDYGTITVLFNTDEEKGSFGSRDLIQEEAKLADYVLSFEPTSAGDEKLSLGTSGIAYVQVQITGKASHAGAAPELGVNALVEASDLVLRTMNIDDKAKNLRFQWTIAKAGQVSNIIPASATLNADVRYARNEDFDAAMKTLEERAQQKKLPEADVKVIVTRGRPAFNAGEGGKKLVDKAVAYYKEAGGTLGVEERTGGGTDAAYAALSGKPVIESLGLPGFGYHSDKAEYVDISAIPRRLYMAARLIMDLGAGK"}}, "assay": "Enzyme kinetic studies of CPG2-derived enzymes in detergent soluble cell extracts, MTX as substrate", "type": "biochemical", "experimental": "COS-7 cells were used for transient expression to provide detergent soluble extracts containing large amounts of CPG2*, CPG2*(Q)3 and stCPG2(Q)3 enzymes for enzyme kinetic studies. Detergent soluble cell extracts, and enzyme kinetic analyses have been described previously (Marais et al (1996) Cancer Res. 56, 4735-4742; Marais et al (1997) Nature Biotech. 15, 1373-1377). Levels of CPG2 protein in detergent soluble extracts were determined by quantitative immunoprotein blotting using a PhosphorImager standardised with purified CPG2 expressed in insect cells. Kinetic parameters of the CPG2 derived proteins were measured, in all cases using 50 ng of CPG2* per assay, and the equivalent amount of the internally expressed and cell-surface tethered variants. The specific activity of COS/CPG2* preparations containing 50 ng of CPG2* protein was assigned as 100%.", "note": "Like-named read-outs stand apart in the source and are kept apart here."}
{"molecule": "B1", "values": [{"measurement": "Catalytic activity (%)", "setting": "specific activity of COS/CPG2* (50 ng CPG2*) assigned as 100%", "value": 32, "unit": "%"}, {"measurement": "Km", "setting": "substrate MTX, detergent soluble cell extract, read-out: Km (μM MTX)", "value": 10.4, "unit": "µM"}, {"measurement": "Km", "setting": "unit μm [sic], read-out: Km", "value": "7 to 10", "unit": "µM"}]}
